Data as given in patent US20020103111A1, “Inhibitors of MAdCAM-1-mediated interactions and methods of use therefor” (Millennium Pharmaceuticals, Inc., priority 1996, published 2002).

The substances below were run against human α4β7 integrin (human) (UniProt P13612) (assay: inhibition of HUT 78 cell adhesion to murine MAdCAM-1/mCk).

Substance | IC50
Ac-Leu-Asp-HyP-Ser-Leu (peptide) | 106 µM
Ac-Lle-Asp-Thr-Ser-Leu (peptide) | 19000 µM
Flc-Leu-Asp-Thr-Ser-Leu (peptide) | 17 µM
